In patent US6914122B2 (priority 2000, dated 2005) one finds Ki data, which are given here for 4 compounds.

Sequences of proteins named here, by UniProt entry; tags and fusion partners are left off. Residues count along the entry.
UniProt P27958, 1027-1657 limits assumed: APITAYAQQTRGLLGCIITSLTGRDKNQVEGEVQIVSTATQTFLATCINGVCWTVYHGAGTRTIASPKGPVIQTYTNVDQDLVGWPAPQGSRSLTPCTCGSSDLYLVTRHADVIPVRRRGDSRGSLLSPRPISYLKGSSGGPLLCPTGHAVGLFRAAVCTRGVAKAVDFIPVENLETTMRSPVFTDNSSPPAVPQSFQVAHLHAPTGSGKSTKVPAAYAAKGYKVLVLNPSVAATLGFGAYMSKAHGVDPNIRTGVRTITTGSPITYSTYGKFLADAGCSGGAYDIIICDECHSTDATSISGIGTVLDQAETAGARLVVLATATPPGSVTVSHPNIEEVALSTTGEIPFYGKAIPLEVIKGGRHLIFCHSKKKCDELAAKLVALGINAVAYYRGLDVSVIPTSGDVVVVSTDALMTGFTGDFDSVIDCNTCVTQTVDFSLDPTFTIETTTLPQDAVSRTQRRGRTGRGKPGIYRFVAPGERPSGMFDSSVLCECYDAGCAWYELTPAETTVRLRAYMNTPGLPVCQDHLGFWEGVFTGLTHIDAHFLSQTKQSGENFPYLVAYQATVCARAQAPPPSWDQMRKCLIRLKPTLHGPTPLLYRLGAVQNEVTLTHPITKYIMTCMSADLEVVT
UniProt P27958, 1658-1711 partner limits assumed: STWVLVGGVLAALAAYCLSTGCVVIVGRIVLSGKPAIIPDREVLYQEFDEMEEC

The test deals with Recombinant heterodimeric HCV NS3/NS4A protease (strain 1a) (Hepatitis C virus genotype 1a, UniProt P27958). The experiment in a line: biochemical. Further details: species or system HCV (strain 1a).

With `CCCC(NC(=O)C1Cc2cccc(c2)Oc2ccc(cc2)CC(NC(=O)OC(C)(C)C)C(=O)NC(C2CCCCC2)C(=O)N1)C(=O)C(=O)NCC(=O)OCc1ccccc1` (stereo not shown) [Example 27], the Ki is 1.1 to 100 µM. For the compound `CCCC(NC(=O)C1Cc2cccc(c2)Oc2ccc(cc2)CCC(=O)NCC(=O)N1)C(=O)C(=O)NCC(=O)NC(C(=O)OC(C)(C)C)c1ccccc1` (stereo not shown) [Example 9], the Ki lay within 1.1 to 100 µM. `CCCC(NC(=O)C1Cc2cccc(c2)Oc2ccc(cc2)CCC(=O)NC(C2CCCCC2)C(=O)N1)C(=O)C(=O)NCC(=O)NC(C(=O)OC(C)(C)C)c1ccccc1` (stereo not shown) [Example 1]: the Ki is 1.1 to 100 µM. Next, `CCCC(NC(=O)C1Cc2cccc(c2)Oc2ccc(cc2)CC(NC(=O)OC(C)(C)C)C(=O)NC(C2CCCCC2)C(=O)N1)C(=O)C(=O)NCC(=O)NC(C(=O)O)c1ccccc1` (stereo not shown) [Example 26]: 1.1 to 100 µM.

In general, Ki refers to the dissociation constant of the complex between target and ligand, obtained from inhibition or displacement.
